Tests used:
Type in all cases: in vivo, Mice
[1] = tested on: CTG-0927 HER2 positive cholangiocarcinoma PDX model; experiment: CTG-0927 cholangiocarcinoma PDX model, tumor growth inhibition; conditions: study day 28; tucatinib 50 mg/kg orally twice per day, trastuzumab 20 mg/kg intraperitoneally once every three days
Protocol: (§1) The TGI index is calculated for a particular time point (e.g., a specific number of days into an experiment or clinical trial) according to the following formula: […]
(§2) where “Tx Day 0” denotes the first day that treatment is administered (i.e., the first day that an experimental therapy or a control therapy (e.g., vehicle only) is administered) and “Tx Day X” denotes X number of days after Day 0. Typically, mean volumes for treated and control groups are used. As a non-limiting example, in an experiment where study day 0 corresponds to “Tx Day 0” and the TGI index is calculated on study day 28 (i.e., “Tx Day 28”), if the mean tumor volume in both groups on study day 0 is 250 mm^3 and the mean tumor volumes in the experimental and control groups are 125 mm^3 and 750 mm^3, respectively, then the TGI index on day 28 is 125%.
(§3) Tucatinib was administered orally at a dose of 50 mg/kg twice per day for 28 days (study days 0-27). […] A vehicle-only group was included as a negative control.

[2] = tested on: CTG-0784 HER2 positive CRC PDX model; experiment: CTG-0784 CRC PDX model, tumor growth inhibition; conditions: study day 29; tucatinib 50 mg/kg orally twice per day, trastuzumab 20 mg/kg intraperitoneally once every three days
Protocol: as §1, §2, §3

[3] = tested on: NCI-H2170 NSCLC xenograft model; experiment: NCI-H2170 NSCLC xenograft model, tumor growth inhibition; conditions: study day 39; tucatinib 50 mg/kg orally twice per day for 21 days, trastuzumab 20 mg/kg intraperitoneally twice per week, from study day 18
Protocol: as §1, §2
(§4) For the Calu-3 study, tucatinib was administered orally at a dose of 50 mg/kg twice per day for 21 days, beginning on study day 7. […] Seven doses of trastuzumab were administered. A vehicle-only group was included as a negative control. Three individual animals received dose holidays (one in the negative control group and two in the combination therapy group).
For the NCI-H2170 study, tucatinib was administered orally at a dose of 50 mg/kg twice per day for 21 days, beginning on study day 18. […] A vehicle-only group was included as a negative control.

[4] = tested on: Calu-3 NSCLC xenograft model; experiment: Calu-3 NSCLC xenograft model, tumor growth inhibition; conditions: study day 28; tucatinib 50 mg/kg orally twice per day for 21 days, trastuzumab 20 mg/kg intraperitoneally once every three days, from study day 7
Protocol: as §1, §2, §4

[5] = tested on: GXA 3054 HER2 positive gastric cancer PDX model; experiment: GXA 3054 gastric cancer PDX model, tumor growth inhibition; conditions: study day 17; tucatinib 50 mg/kg orally twice per day, trastuzumab 20 mg/kg intraperitoneally once every three days
Protocol: as §1, §2, §3

[6] = tested on: GXA 3039 HER2 positive gastric cancer PDX model; experiment: GXA 3039 gastric cancer PDX model, tumor growth inhibition; conditions: study day 29; tucatinib 50 mg/kg orally twice per day, trastuzumab 20 mg/kg intraperitoneally once every three days
Protocol: as §1, §2, §3

[7] = tested on: CTG-0137 HER2 positive esophageal cancer PDX model; experiment: CTG-0137 esophageal cancer PDX model, tumor growth inhibition; conditions: study day 15; tucatinib 50 mg/kg orally twice per day, trastuzumab 20 mg/kg intraperitoneally once every three days
Protocol: as §1, §2, §3

[8] = tested on: CTG-0138 HER2 positive esophageal cancer PDX model; experiment: CTG-0138 esophageal cancer PDX model, tumor growth inhibition; conditions: study day 30; tucatinib 50 mg/kg orally twice per day, trastuzumab 20 mg/kg intraperitoneally once every three days
Protocol: as §1, §2, §3

[9] = tested on: GXA 3038 HER2 positive gastric cancer PDX model; experiment: GXA 3038 gastric cancer PDX model, tumor growth inhibition; conditions: study day 28; tucatinib 50 mg/kg orally twice per day, trastuzumab 20 mg/kg intraperitoneally once every three days
Protocol: as §1, §2, §3

Substance: trastuzumab
- Observed TGI (tumor growth inhibition index) [1]: 63%
- Observed TGI (tumor growth inhibition index) [2]: 36%
- Observed TGI (tumor growth inhibition index) [3]: 61%
- Observed TGI (tumor growth inhibition index) [4]: 86%
- Observed TGI (tumor growth inhibition index) [5]: 93%
- Observed TGI (tumor growth inhibition index) [6]: 38%
- Observed TGI (tumor growth inhibition index) [7]: 55%
- Observed TGI (tumor growth inhibition index) [8]: −34%
- Observed TGI (tumor growth inhibition index) [9]: 50%

Source: patent US20230270745A1 (Seagen Inc., priority 2020, published 2023)
